Results reported in US9663463B2, “3-azabicyclo[3.1.0]hexane derivative and use thereof for medical purpose” (priority 2013, dated 2017).
Where a name gives a salt, the structure may show the parent alone.

Target: hERG (Homo sapiens (Human), UniProt Q12809)
Assay: Safety margin against hERG inhibitory activity
Conditions: hERG IC50×1000/{concentration in plasma at ED50×(1−protein binding rate/100)}
Description: In order to compare the risks of extension of QT interval prolongation in the electrocardiogram among the test substances, the safety margins against the hERG inhibitory effect were calculated. […] Therefore, the following formula was used for calculating the safety margin, and the obtained values were described in Table 7. Safety margin against hERG inhibitory effect=IC50×1000/{concentration in plasma×(1−protein binding rate/100)}
IC50: the IC50 value in a hERG inhibition assay (μM)
Plasma concentration: the plasma concentration of test substance (nM) at the ED50 value in the test for evaluating the anti-pruritic effect in the morphine model
Protein binding rate: the protein binding rate (%) in the protein binding assay in murine serum

## CC[C@]1(c2cccc(NS(=O)(=O)C3CC3)c2)[C@@H]2CN(CCCC3(OC)CCC(F)(F)CC3)C[C@@H]21 [Example 6-(b), N-(3-{(1R,5S,6r)-3-[3-(4,4-difluoro-1-methoxycyclohexyl)propyl]-6-ethyl-3-azabicyclo[3.1.0]hexan-6-yl}phenyl)cyclopropanesulfonamide hydrochloride]
  Safety margin: 2130
